Amino acid sequences for entries named in this document (tags omitted).
ATP-dependent Clp protease proteolytic subunit (Bacillus subtilis (strain 168)), P80244, UniProt P80244, whole entry, looked up: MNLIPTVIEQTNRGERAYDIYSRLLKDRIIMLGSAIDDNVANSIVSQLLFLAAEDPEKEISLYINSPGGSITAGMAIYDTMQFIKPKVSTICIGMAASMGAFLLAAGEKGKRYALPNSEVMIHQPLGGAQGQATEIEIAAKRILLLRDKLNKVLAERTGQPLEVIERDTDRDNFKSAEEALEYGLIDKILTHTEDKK

# Source: PubChem (National Center for Advancing Translational Sciences (NCATS))
# In the library only some 3.7% were active in any assay of this set; here they are far more common.
# IL-2 act = activates IL-2 in a cell-based reporter assay; IL-2 activation reporter assay, cell-based qHTS; stimulated with anti-CD3/CD4/CD28 beads; in transgenic mouse T cells; activation, % (series mostly up to about 46 µM); 360,000 tested, 0.065% active; AID 652025; in the data active means activation above about 50%; inconclusive means mostly about 30% to 49%; further: 0% is about no effect
#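 Screening format: compound pinned onto unstimulated transgenic mouse T cells, 60 min incubation, then anti-CD3/anti-CD4/anti-CD28 bead stimulation for 18 hours at 37 degrees C, followed by EGFP and DsRed detection.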
# Nrf2 activator = activators of Nrf2 (ARE) signaling; AREc32 ARE-luciferase reporter (MCF7-derived line), luminescence, 24 h; Potency, µM (series often up to 46.1 µM), without a hit: at the top dose activation, usual class: activators; 410,000 tested, 0.31% active; AID 624171; further: potency means the concentration at half of the fitted maximal effect; % of control where 0% means no effect; nearly all actives have a fitted effect of over 65% in size
#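 Steps: seed AREc32_Fluc cells (1000/well, 5% FBS OPTI-MEM); incubate overnight at 37 deg C; add 23 nL compound; incubate 24 hr; add Steady-Glo; hold 30 min RT; read luminescence.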
# miR-21 FLuc = miR-21 reporter, rising signal | 340,000 tested, under 10 active | AID 2288 | HeLa miR-21 FLuc reporter, luciferase, 48 h | Potency, µM (titrated, usually from 38.3 µM), for inactives: at the highest dose reporter change, positive = more light; active = well fitted rising curve with a large enough effect; inconclusive = small, poorly fitted or top-dose-only effect; inactive = no such curve, though single readings can be large or run the other way;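 further: % of control where 0% means no effect; miR-21 action dims this reporter so a rising signal means less miR-21 action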
#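 HeLa cells endogenously expressing miR-21, stably carrying CMV-driven firefly luciferase with a downstream miR-21 binding site, 2000 cells/well. Titrations up to approximately 40 uM, 48 hours; luciferase luminescence read.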
# ClpP mod = qHTS Assay for Activators of ClpP; ATP-dependent Clp protease proteolytic subunit (Bacillus subtilis (strain 168)), P80244; purified B. subtilis ClpP, FRET peptide cleavage, 20 min; Potency, µM (series often up to 57.5 µM), for inactives: at the top dose activity change, negative = active; 340,000 tested, 1.9% active; active means well fitted falling curve with a large enough effect; inconclusive means small, poorly fitted or top-dose-only effect; inactive means no such curve, though single readings can be large or run the other way; further: potency means the concentration at half of the fitted maximal effect; the source files actives as falling curves though it sought activators and does not explain the sign; nearly all actives have a fitted effect of over 65% in size
#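 Buffer: 100 mM Tris/HCl pH8, 100 mM KCl, 0.05% low protease BSA, 2.5% glycerol, 0.01% Tween-20. ClpP 10 microg/mL final; 20 min RT; delta FRET normalized to ADEP and DMSO controls.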
# Nrf2 inh = Nrf2 pathway inhibition | 360,000 tested, 2.1% active | Potency, µM (doses to about 46 µM), inactives show at the highest dose activity change, negative = inhibition, usual class: inhibitors | A549 ARE-Fluc reporter, luciferase luminescence, 18-24 h; further: potency means the concentration at half of the fitted maximal effect; on the % scale 0 is the no-effect control and ±100 the full control effect; nearly all actives have a fitted effect of over 60% in size
#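 Cells were seeded and rested 2 h, then exposed to compounds for 18-24 h. CellTiter-Fluor was read first as a viability measure. BugLite was added 15 min before the final luminescent read of ARE-luciferase activity in A549 cells.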
# A549 tox = A549 cytotoxicity, counter-screen for Nrf2 inhibitors; Potency, µM (highest dose often 46 µM), for the others: at the highest dose activity change, negative = cytotoxicity, most hits filed as inhibitors; AID 504648; 390,000 tested, 0.16% active; A549 ARE-Fluc cells, CellTiter-Fluor viability, 18-24 h; further: potency means the concentration at half of the fitted maximal effect; on the % scale 0 is the no-effect control and ±100 the full control effect
#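 Cytotoxicity counterscreen: CellTiter-Fluor fluorescence was measured in A549 ARE_Fluc cells after 18-24 h of compound exposure in a concentration series. The subsequent BugLite luminescent read reports ARE-luciferase activity.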
# Active calls of the source: *; ? = inconclusive; . = no result given; [ ] = another dose, or the depositor's remark. Unless noted, the call rests on the fitted dose curve; in most records, active means well fitted curve in the direction sought with a large enough effect; inconclusive means small, poorly fitted or top-dose-only effect, or another doubt; inactive means no such curve, though single readings can be large; an effect the other way counts as inactive or inconclusive.
# The line under a structure holds: IL-2 act, Nrf2 activator, miR-21 FLuc, ClpP mod, Nrf2 inh, A549 tox
1. COc1ccc(CCNC(=O)N2c3ccccc3Sc3ccccc32)cc1
→ -2.7, 0.4%, ., -0.8%, 16.4µM*, ?
2. O=C(O)c1ccccc1NS(=O)(=O)c1cccc(N=Nc2c(O)[nH]c(=S)[nH]c2=O)c1
→ 1.5, -0.1%, ., ., -13.3%, ?
3. Cn1c(=O)oc2cc(NC(=O)CCl)ccc21
→ -4.8, 7.94µM*, ?, -2.8%, ?, -27.8%
4. Cn1c(=O)oc2cc(S(=O)(=O)CCC(=O)NCCc3ccccc3)ccc21
→ 0.5, 1.4%, -7.3%, -1.4%, ?, -4.3%
5. CC(CNC(=O)c1ccc(CSc2nc3ccncc3n2Cc2ccc(F)cc2)cc1)c1ccccc1 (stereo not given)
→ ., 2.7%, 27.4%, -9.3%, 23.1µM*, -9.0%
6. O=S(=O)(c1ccc(Cl)cc1)N1CCC(n2cnc3cc(C(F)(F)F)ccc32)CC1
→ 1.9, 3.4%, ., -11.9%, ?, -10.7%
7. COc1ccc(Cn2c(N)c(C(=O)NCc3ccco3)c3nc4ccccc4nc32)cc1OC
→ -0.9, -0.1%, -5.2%, 31.6µM*, ?, ?
8. COCCCNC(=O)c1c(N)n(Cc2ccco2)c2nc3ccccc3nc12
→ 0.0, 3.7%, 7.1%, 4.3%, -5.2%, 17.5%
9. CC(C)CNC(=O)c1c(N)n(Cc2ccco2)c2nc3ccccc3nc12
→ 1.5, 4.9%, 5.5%, 22.4µM*, ?, -20.8%
10. CC(C)OC(=O)c1c(N)n(Cc2ccco2)c2nc3ccccc3nc12
→ 0.5, 6.9%, 1.6%, 14.1µM*, -0.8%, -4.1%
11. COC(=O)c1c(N)n(Cc2ccc(OC)cc2)c2nc3ccccc3nc12
→ 0.4, 0.1%, 3.0%, 10µM*, ., -3.6%
12. CCOC(=O)c1c(N)n(Cc2ccc(OC)cc2)c2nc3ccccc3nc12
→ ., ., 4.5%, ., ., .
13. Cc1[nH]c2ccccc2c1P(=S)(c1ccccc1)c1ccccc1
→ ., ., ., ., -9.7%, -0.5%
14. Cc1ccc(CNc2cc(C)nc3nc(-c4ccc(C)cc4)nn23)cc1
→ ., -0.2%, -38.8%, 37.3%, ., 10.4%
15. O=C(c1cncc(Br)c1)N1CCN(S(=O)(=O)c2ccc3ccccc3c2)CC1
→ -0.5, 2.1%, ., 0.5%, ?, 0.6%
16. CCCNC(=O)c1c(N)n(Cc2ccco2)c2nc3ccccc3nc12
→ 0.8, 9.0%, 2.9%, 28.2µM*, -10.0%, 6.7%
17. CCOc1ccc(/C=C/c2nc(C#N)c(NCc3ccccc3)o2)cc1
→ ., 3.8%, ?, 4.2%, 8.9%, -17.3%
18. CCOC(=O)c1ccccc1NC(=O)N(Cc1ccc(CC)cc1)Cc1cn[nH]c1-c1ccc(OC)cc1
→ ., -1.2%, -2.0%, 35.5µM*, 3.1%, 3.5%
19. C=C1C(=O)[C@@]23C[C@H]4[C@@H]5[C@@]6(C)CCC[C@@]57[C@@H]2[C@@H](O)[C@@H]1C[C@H]3[C@H]7N4C6
→ -0.8, -2.8%, ., -2.5%, 23.1µM*, 13µM*
20. O=C(C(=O)N1CCOCC1)c1cn(Cc2c(F)cccc2Cl)c2ccccc12
→ -0.5, 0.4%, 2.3%, ., 9.5%, 6.8%

# Filtered by structure: the compounds so far with an NH in an aromatic ring.
# The line under a structure holds: IL-2 act, Nrf2 activator, miR-21 FLuc, ClpP mod, Nrf2 inh, A549 tox
2. O=C(O)c1ccccc1NS(=O)(=O)c1cccc(N=Nc2c(O)[nH]c(=S)[nH]c2=O)c1
→ 1.5, -0.1%, ., ., -13.3%, ?
13. Cc1[nH]c2ccccc2c1P(=S)(c1ccccc1)c1ccccc1
→ ., ., ., ., -9.7%, -0.5%
18. CCOC(=O)c1ccccc1NC(=O)N(Cc1ccc(CC)cc1)Cc1cn[nH]c1-c1ccc(OC)cc1
→ ., -1.2%, -2.0%, 35.5µM*, 3.1%, 3.5%

# (more compounds)
# The line under a structure holds: IL-2 act, Nrf2 activator, miR-21 FLuc, ClpP mod, Nrf2 inh, A549 tox
21. Cc1cc2c(cc(C(=O)N3CCC(C(=O)NC4CCCC4)CC3)n2Cc2c(F)cccc2Cl)o1
→ -1.8, 0.6%, ?, 1.1%, 16.4µM*, -21.7%
22. Cc1ccc(C)c(N2CCN(c3ncnc4onc(C)c34)CC2)c1
→ ., -1.2%, ?, 1.3%, 13µM*, -17.2%
23. CC(C)c1ccc(Cc2cn3cc(-c4cc5ccccc5oc4=O)nc3s2)cc1
→ ., 0.1%, -0.3%, 5.5%, ?, -8.3%
24. O=C(OCc1cc(=O)n2nc(C3CC3)sc2n1)c1ccc(NC(=O)c2ccccc2Cl)cc1
→ ., 1.9%, ?, 2.1%, ., -16.7%
25. CC(C)C[C@H]1CN([C@@H](CC(C)C)CN2CCCC2CN2C(=S)NC[C@@H]2Cc2ccc(O)cc2)C(=S)N1CC1CCCCCC1 (stereo not given in full)
→ -0.8, -1.1%, ., 0.3%, ?, -15.8%
26. ClCCN(CCCl)c1ccc(/C=C/c2sc3ccccc3[n+]2CCCCI)cc1
→ ., ., ., 3.8%, ., .
27. Cc1cc(NC(=O)CCl)no1
→ -3.9, ?, 28.2%, 0.5%, 16.4µM*, ?
28. CCN(CC)c1ccc(NC(=O)c2cccc(C)c2)cc1S(=O)(=O)Nc1ccccc1OC
→ 1.6, -0.3%[9.22 µM], -0.3%, -9.7%, ?, 8.6%
29. CN1CC=C2C(C#N)=C(N)C(C#N)(C#N)C(c3ccncc3)C2C1 (stereo not given)
→ 2.3, 0.4%, -1.3%, 28.2µM*, 2.2%, -12.6%
30. CC=CC(C)=CC(C)C(=O)CC(O)CC1CC(=O)NC(=O)C1 (stereo not given)
→ -3.5, -2.4%, ., -0.1%, ., .
31. CC1CC(C)(O)CC(C(O)CC2CC(=O)NC(=O)C2)C1=O (stereo not given)
→ -4.8, -0.4%, ., -2.2%, 0.581µM*, ?
32. Nc1nnc(Sc2ncccc2[N+](=O)[O-])s1
→ 0.0, ?, -6.2%, -9.1%, 4.2%, -2.0%
33. CN(C)C(=O)O/N=C(\N)COc1ccc(C(C)(C)C)cc1
→ -0.8, -4.3%, ?, 1.6%, ?, 20.6µM*
34. Cc1cccc(N(CC(=O)NCCSc2ccc(Cl)cc2)S(=O)(=O)c2ccccc2)c1C
→ ., -0.3%, ?, -1.7%, ?, -11.3%
35. COc1ccc(CCNc2nc3c(c(=O)n(C)c(=O)n3C)n2Cc2ccc(F)cc2)cc1OC
→ ., 4.6%, 29.9%, -0.5%, 16.4µM*, -13.7%
36. COc1ccc(CCNc2nccn(-c3ccc(C)c(C)c3)c2=O)cc1OC
→ ., -1.0%, 2.1%, -9.8%, ?, -18.9%
37. CC[C@@H](C(=O)[C@@H](C)[C@@H](O)[C@H](C)[C@@H]1O[C@@H]([C@@H](CC)C(=O)O)CC[C@@H]1C)[C@H]1O[C@]2(C=C[C@@H](O)[C@]3(CC[C@@](C)([C@H]4CC[C@](O)(CC)[C@H](C)O4)O3)O2)[C@H](C)C[C@@H]1C
→ -0.8, 0.5%, ., -0.9%, 1.46µM*, 4.61µM*
38. CCCCN1CC(O)=C(c2nc3ccccc3s2)C1=N
→ -1.5, 3.1%, -81.8%, -8.7%, ?, -10.1%
39. CNC(=O)COC(=O)c1ccc(-c2nc3ccccc3s2)s1
→ -0.1, 0.4%, -38.7%, 6.31µM*, ?, 4.9%
40. CCCCNC(=O)c1c(N)n(CCCOC)c2nc3ccccc3nc12
→ 0.2, 2.0%, 0.2%, 25.1µM*, ?, 0.7%
41. COCCCn1c(N)c(C(=O)OCCOC)c2nc3ccccc3nc21
→ 0.3, 0.7%, 0.8%, -1.8%, 0.4%, 0.3%
42. CC(C)CCn1c(N)c(C(=O)NCc2cccs2)c2nc3ccccc3nc21
→ -2.0, -0.9%, 21.5%, 14.1µM*, -21.5%, 3.8%
43. COCCNC(=O)c1c(N)n(CCC(C)C)c2nc3ccccc3nc12
→ 0.0, 6.5%, 22.0%, 15.8µM*, ?, 12.5%

# Laid out differently: entries from further up
item	Molecule	IL-2 act	Nrf2 activator	miR-21 FLuc	ClpP mod	Nrf2 inh	A549 tox
10	CC(C)OC(=O)c1c(N)n(Cc2ccco2)c2nc3ccccc3nc12	0.5	6.9%	1.6%	14.1µM*	-0.8%	-4.1%
11	COC(=O)c1c(N)n(Cc2ccc(OC)cc2)c2nc3ccccc3nc12	0.4	0.1%	3.0%	10µM*	.	-3.6%
